The list shows a part of the results, in another mix than the full data. Calls of active or inactive are those of the source.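 How the source made its calls: active means inhibition exceeding 3 SD of buffer-only control wells (cut at about 26% in these data); inactive means the rest.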

This test can be described thus: carbachol calcium response changes in non-induced cells, primary screen, counter-screen for RGS4 activator project, cell-based, HEK293 M3R, non-induced RGS4, Fluo-4 calcium (AID 602283).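 Further: percent drop in integrated peak-minus-baseline over baseline Fluo4 ratio after carbachol.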 The conditions noted are these: HEK293 M3R non-induced RGS4, Fluo4 calcium flux; at 10 µM; hits give high values; after carbachol challenge at its EC90.
In the case of `COc1cc(C(=O)NCC2(N3CCCCC3)CCCCC2)ccc1OC(F)F`, the inhibition was inactive: 0%.
As for `CCOc1ccc(C)cc1CN(CCCl)CCCl`, the inhibition is active: 94.3%.
Turning to `O=C(OC1CN2CCC1CC2)C1c2ccccc2C=Cc2ccccc21` (stereo not drawn), the inhibition is active: 91.8%.

(Values after PubChem BioAssay AID602283 (Johns Hopkins Ion Channel Center, 2012).)
